The values that follow come from paper PMC5015106 (Scientific Reports, 2016).

The chains behind the UniProt entries cited, without tags or fusion partners. Residues count along the entry.
UniProt Q96IY4, 115-423 limits assumed: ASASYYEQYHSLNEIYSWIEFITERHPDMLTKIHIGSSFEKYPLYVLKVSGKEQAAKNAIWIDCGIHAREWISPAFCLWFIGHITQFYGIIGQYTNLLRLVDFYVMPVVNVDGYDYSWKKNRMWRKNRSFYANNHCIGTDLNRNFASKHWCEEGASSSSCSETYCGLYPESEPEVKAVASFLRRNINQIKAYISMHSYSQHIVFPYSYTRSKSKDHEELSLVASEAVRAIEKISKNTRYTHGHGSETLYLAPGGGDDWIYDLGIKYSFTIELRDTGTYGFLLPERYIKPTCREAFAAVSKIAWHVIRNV

Assay [1] deals with T1, TAFIa (Homo sapiens, UniProt Q96IY4). The assay can be described thus: TAFIa enzymatic inhibition assay (Actichrome plasma TAFIa activity kit). The conditions noted are these: read-out: IC50 in nM against TAFIa, duplicate determination. The format is biochemical.
In assay [2] the target is T1, TAFIa. The following applies: read-out: IC50 against TAFIa; enzymatic assay; cited from earlier work.

pIC50: −log10 of the molar value. Read-outs that look alike come from different tables or passages of the source.

With `CC[C@@H](C)[C@@H]1NC(=O)[C@H](NC(=O)N[C@@H](Cc2ccc(O)cc2)C(=O)O)CCCCNC(=O)[C@H](Cc2ccccc2)NC(=O)[C@H](C)N(C)C(=O)[C@H](CCc2ccc(O)cc2)NC1=O`, the concentration for half-maximal inhibition (IC50) on TAFIa [1] was found to be 400 nM. For `CC(C)[C@@H]1NC(=O)[C@H](NC(=O)N[C@@H](CCCNC(=N)N)C(=O)O)CCCCNC(=O)[C@H](Cc2ccccc2)NC(=O)[C@H](C)N(C)C(=O)[C@H](CCc2ccc(O)cc2)NC1=O` [Compound 1, Anabaenopeptin B], the pIC50 at TAFIa [2] was 8.82. On to `CC(C)C1NC(=O)C(NC(=O)NC(CCCCN)C(=O)O)CCCCNC(=O)C(Cc2ccccc2)NC(=O)C(C)N(C)C(=O)C(CCc2ccc(O)cc2)NC1=O` (centres unmarked) [Compound 2, Anabaenopeptin C], for which the pIC50 on TAFIa [2] was 8.72. Moreover, at TAFIa [1], the half-maximal inhibitory concentration (IC50) was found to be 1.9 nM. For the compound `CC[C@H](C)[C@@H]1NC(=O)[C@H](NC(=O)N[C@@H](CCCNC(=N)N)C(=O)O)CCCCNC(=O)[C@H](Cc2ccccc2)NC(=O)[C@H](C)N(C)C(=O)[C@H](CCc2ccc(O)cc2)NC1=O` [Compound 3, Anabaenopeptin F], the pIC50 on TAFIa [2] was 8.82.

As a reminder, the IC50 is the point on the concentration scale where inhibition reaches its midpoint. For orientation: pIC50 means the IC50 on a negative log10 scale, so that one unit is a factor of ten.
